From publication PMC6130761, “Isolation, crystal structure determination and cholinesterase inhibitory potential of isotalatizidine hydrate from Delphinium denudatum” (Pharmaceutical Biology, 2016)

The chains behind the UniProt entries cited, without tags or fusion partners. Residues count along the entry.
UniProt O42275, 24-633: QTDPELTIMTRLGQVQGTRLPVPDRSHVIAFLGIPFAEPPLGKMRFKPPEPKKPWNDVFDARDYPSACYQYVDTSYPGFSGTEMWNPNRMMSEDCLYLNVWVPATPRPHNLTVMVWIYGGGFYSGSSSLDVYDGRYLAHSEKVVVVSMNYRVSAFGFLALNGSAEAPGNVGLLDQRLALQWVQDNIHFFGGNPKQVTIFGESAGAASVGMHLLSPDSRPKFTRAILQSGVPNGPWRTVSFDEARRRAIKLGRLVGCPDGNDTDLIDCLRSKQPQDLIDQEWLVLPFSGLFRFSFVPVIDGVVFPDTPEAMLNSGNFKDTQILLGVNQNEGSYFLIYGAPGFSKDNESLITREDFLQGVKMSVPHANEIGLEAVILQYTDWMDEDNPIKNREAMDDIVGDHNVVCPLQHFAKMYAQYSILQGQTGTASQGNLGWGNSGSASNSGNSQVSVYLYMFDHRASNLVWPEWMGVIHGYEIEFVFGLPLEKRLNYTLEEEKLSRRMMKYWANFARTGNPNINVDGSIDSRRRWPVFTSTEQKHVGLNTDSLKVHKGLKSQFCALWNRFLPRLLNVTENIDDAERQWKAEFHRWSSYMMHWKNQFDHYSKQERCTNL
UniProt P81908, whole entry: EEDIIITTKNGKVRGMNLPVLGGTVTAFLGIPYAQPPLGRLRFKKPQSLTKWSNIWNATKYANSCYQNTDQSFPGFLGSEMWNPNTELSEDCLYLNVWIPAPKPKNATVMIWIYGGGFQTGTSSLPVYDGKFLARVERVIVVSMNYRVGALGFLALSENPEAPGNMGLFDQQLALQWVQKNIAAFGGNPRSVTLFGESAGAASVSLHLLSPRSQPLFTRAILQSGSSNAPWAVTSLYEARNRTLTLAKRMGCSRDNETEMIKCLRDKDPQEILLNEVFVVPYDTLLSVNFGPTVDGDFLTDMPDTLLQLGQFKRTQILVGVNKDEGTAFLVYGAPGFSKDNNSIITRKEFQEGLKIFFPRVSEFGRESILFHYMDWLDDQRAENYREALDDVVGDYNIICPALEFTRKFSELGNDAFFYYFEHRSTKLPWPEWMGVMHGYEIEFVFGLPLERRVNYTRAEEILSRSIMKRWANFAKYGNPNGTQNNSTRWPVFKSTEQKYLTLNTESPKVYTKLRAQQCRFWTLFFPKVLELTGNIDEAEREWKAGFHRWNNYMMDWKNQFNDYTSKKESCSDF

Columns and labels:
[1] = target: T1, AChE (Electric-eel EC 3.1.1.7) (Electrophorus electricus, UniProt O42275); type: biochemical; conditions: pH 8; read-out: AChE ± SEM (IC50)
T1 construct: purchased Sigma Aldrich

[2] = target: T2, BChE (horse-serum E.C 3.1.1.8) (Equus caballus, UniProt P81908); assay: Cholinesterase inhibition assay (Ellman spectrophotometric method), BChE; type: biochemical; conditions: standard error of mean of five assays; DTNB, pH 8.0, 25 °C; read-out: BChE ± SEM (IC50)
T2 construct: purchased Sigma Aldrich; host or cells: horse serum

Allanzanthane A [reference compound]
IC50 [1]: 8.23 ± 0.01 µM | IC50 [2]: 18 ± 0.06 µM
